Tests used:
MATE1 = target: T1, MATE1 (Homo sapiens, UniProt Q96FL8); experiment: Inhibition of ASP+ uptake in HEK293 cells overexpressing MATE1; assay type: cell-based; conditions: HEK293-MATE1, ASP+ 10 μM, 1 min, 37 °C; Avg ± SE (n = 3)
T1 construct: expressed in transfected cells; gift of Dr. Kathy Giacomini, UCSF
T1 sequence (Q96FL8 1-570): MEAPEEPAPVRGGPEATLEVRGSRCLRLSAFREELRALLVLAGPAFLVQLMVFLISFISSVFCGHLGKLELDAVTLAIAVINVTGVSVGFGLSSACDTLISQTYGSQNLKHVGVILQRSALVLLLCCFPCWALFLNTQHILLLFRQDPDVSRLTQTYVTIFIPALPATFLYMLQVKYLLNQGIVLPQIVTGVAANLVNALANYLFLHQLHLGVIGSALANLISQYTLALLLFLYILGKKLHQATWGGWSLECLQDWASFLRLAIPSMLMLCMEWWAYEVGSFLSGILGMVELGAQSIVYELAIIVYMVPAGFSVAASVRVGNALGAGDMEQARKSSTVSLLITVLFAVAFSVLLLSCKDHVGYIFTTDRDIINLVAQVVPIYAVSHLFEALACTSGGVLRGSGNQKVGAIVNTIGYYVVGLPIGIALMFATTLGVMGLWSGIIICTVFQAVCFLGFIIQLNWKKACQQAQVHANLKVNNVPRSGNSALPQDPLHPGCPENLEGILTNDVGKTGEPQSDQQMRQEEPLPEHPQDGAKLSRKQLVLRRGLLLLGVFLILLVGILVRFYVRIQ

OCT2 and MATE1 = experiment: Inhibition of basolateral-to-apical transcellular transport of ASP+ in OCT2/MATE1 double-transfected MDCK cells (Transwell); conditions: human, probe ASP+ (25 μM, basolateral chamber)

## Cc1nccn1CC1CCc2c(c3ccccc3n2C)C1=O (stereo not drawn) [Ondansetron]
MATE1
  IC50: 0.1 ± 0.1 µM

## Cc1cc2c(s1)Nc1ccccc1N=C2N1CCN(C)CC1 [olanzapine]
OCT2 and MATE1
  inhibition at 120 min, 20 μM: 28%

## CN/C(=N/CCSCc1nc[nH]c1C)NC#N [Cimetidine]
MATE1
  IC50: 0.23 ± 0.2 µM

— article PMC8234231, “In Vitro Inhibition of Renal OCT2 and MATE1 Secretion by Antiemetic Drugs” (International Journal of Molecular Sciences, 2021)
